The values that follow come from patent publication US20260382577A1, “ORAL PHARMACEUTICAL PREPARATION COMPRISING SODIUM-GLUCOSE COTRANSPORTER-2 INHIBITOR AND ANGIOTENSIN II RECEPTOR BLOCKER” (published 2026).

One series concerns Sprague-Dawley rats. The series can be described thus: 4-week repeated oral administration toxicity in rats. Conditions: 4 weeks repeated oral.
The subject of another series is ACE mRNA. In words: ACE mRNA expression (RT-PCR) in LPS inflammation-induced H9c2 cells. Conditions: for mRNA expression of ACE: single substance.
A further series concerns MDCK cells. In words: Cell survival rate (MTT) in MDCK cells. Conditions: up to 25 μM, 24 and 48 hours.
The next series has as its system A549 cells. In words: Cell survival rate (MTT) in A549 cells. As to conditions: up to 25 μM, 24 and 48 hours.
Series [1] is described as follows: Single oral administration pharmacokinetics in beagle dogs. Conditions: for equivalence: judgment criterion log 0.8 to 1.25; for drug-drug interaction (DDI): single versus combined administration.
For series [2] the following is noted: cited from earlier work.
The nature of series [3]: Drug-drug compatibility test, accelerated storage 4 weeks.
The test system of series [4] is angiotensin converting enzyme (ACE). The series can be described thus: ACE protein expression (Human ACE ELISA) in LPS inflammation-induced H9c2 cells.
A short description of series [5]: Phase 1 clinical trial, pharmacokinetic interaction. As to conditions: Dapagliflozin 10 mg in the presence of Telmisartan 80 mg.
[6] abbreviates: low concentration 2.5 μM to 10 μM.
Setting [7] is: Acceleration 1 week, 40±2 °C/75±5% RH.
The mark [8] stands for this setting: Acceleration 2 week, 40±2 °C/75±5% RH.
Setting [9] is: Acceleration 3 week, 40±2 °C/75±5% RH.
Where [10] appears, read: Acceleration 4 week, 40±2 °C/75±5% RH.

Structures are written as SMILES.

With `CCCc1nc2c(C)cc(-c3nc4ccccc4n3C)cc2n1Cc1ccc(-c2ccccc2C(=O)O)cc1`, in the series with Sprague-Dawley rats, the body weight gain entry is “a tendency for inhibiting weight gain”. The “mRNA expression (ACE)” value in the series on ACE mRNA (25 μM) is given as “mostly inhibited”. Further, the “mRNA expression inhibition effect (ACE)” value in the series with ACE mRNA (all treatment concentrations) is reported as “superior to that of olmesartan at all treatment concentrations”. Moreover, the “mRNA expression of ACE” value in the series with ACE mRNA (15 μM high concentration) is on record as “decrease below the normal level”; with ACE mRNA (setting [6]), “did not decrease to a normal level”. The cell survival rate result in the series with MDCK cells and in the series with A549 cells was “no effect on cell survival rate” throughout. For the same compound, the “difference in AUCall between single and combined administration group” value in series [1] (Telmisartan) is given as 1.0 times. For the same compound, the equivalence entry in [1] is reported as “equivalent”. Further, the “drug-drug interaction (DDI)” value in series [1] is on record as “no drug-drug interaction (DDI)”. In series [2], the “difference in solubility by pH” value was at least 100 times. The dissolution interference result in series [2] (conventional reports) is reported as “interfering with the dissolution of SGLT-2 inhibitors, particularly Dapagliflozin”. The property result in series [3] (setting [7]), in [3] (setting [8]), in series [3] (setting [9]), in series [3] (setting [10]) and in series [3] (Initial) was “suitable” in each case. In addition, the “ACE expression inhibition effect” value is “the best” in [4] (25 μM) and “superior to that of olmesartan at all treatment concentrations” in series [4] (all treatment concentrations (10, 25, 50)).

Turning to `OC[C@H]1O[C@@H](c2ccc(Cl)c(Cc3ccc(O[C@H]4CCOC4)cc3)c2)[C@H](O)[C@@H](O)[C@@H]1O`, the results for the “mRNA expression of ACE” value in the series on ACE mRNA (15 μM high concentration) and with ACE mRNA (setting [6]) were “decrease below the normal level” and “did not decrease to a normal level”, respectively. Besides, the property result is “suitable” in series [3] (setting [7]); “suitable” in [3] (setting [8]); “unsuitable” in series [3] (setting [9]); “unsuitable” in series [3] (setting [10]); “suitable” in [3] (Initial).

On to `CCOc1ccc(Cc2cc([C@@H]3O[C@H](CO)[C@@H](O)[C@H](O)[C@H]3O)ccc2Cl)cc1`, for which, in the series with Sprague-Dawley rats, the GLU entry is recorded as “decreased”. The figures for the “mRNA expression of ACE” value in the series on ACE mRNA (15 μM high concentration) and with ACE mRNA (setting [6]) were “decrease below the normal level” and “did not decrease to a normal level”, respectively. Further, the “90% confidence interval of AUC T/R ratio” value in series [5] was in the range of 0.97 to 1.03. Besides, in series [5], the “90% confidence interval of Cmax T/R ratio” value lay within 0.93 to 1.12. The “AUC T/R ratio” value in series [5] (repeated oral, humans) was 1.00 times. Further, in [5] (repeated oral, humans), the “Cmax T/R ratio” value was 1.02 times. Besides, the “difference in AUCall between single and combined administration group” value in series [1] (Dapagliflozin) is on record as 1.0 times. The equivalence result in [1] is given as “equivalent”. In addition, in [1], the “drug-drug interaction (DDI)” value is on record as “no drug-drug interaction (DDI) at all”. Moreover, the property entry in series [3] (setting [7]) is listed as “suitable”; in [3] (setting [8]), “suitable”; in series [3] (setting [9]), “unsuitable”; in [3] (setting [10]) it was “unsuitable”; in [3] (Initial) it was “suitable”.

With `CCCc1nc(C(C)(C)O)c(C(=O)O)n1Cc1ccc(-c2ccccc2-c2nnn[nH]2)cc1`, the cell survival rate entry with MDCK cells and with A549 cells was “no effect on cell survival rate” throughout. Moreover, the property result in [3] (setting [7]), in series [3] (setting [8]), in series [3] (setting [9]), in series [3] (setting [10]) and in series [3] (Initial) was “suitable” each time.

As for `CCCCC(=O)N(Cc1ccc(-c2ccccc2-c2nnn[nH]2)cc1)[C@H](C(=O)O)C(C)C`, the property result in series [3] (setting [7]), in series [3] (setting [8]), in series [3] (setting [9]), in [3] (setting [10]) and in series [3] (Initial) was “suitable” each time.

Regarding `Cc1ccc([C@@H]2O[C@H](CO)[C@@H](O)[C@H](O)[C@H]2O)cc1Cc1ccc(-c2ccc(F)cc2)s1`, the property result in series [3] (setting [7]) is listed as “unsuitable”; in [3] (setting [8]) it was “unsuitable”; in series [3] (setting [9]), “unsuitable”; in [3] (setting [10]), “unsuitable”; in series [3] (Initial) it was “suitable”.
